Test [1] has as its system H3K9me2 in MDA-MB-231 cells. The test can be described thus: MDA-MB-231 H3K9me2 in-cell western assay. The following applies: read-out: EHMT2 ICW (IC50 μM). The source says:
MDA-MB-231 cell line was purchased from ATCC (Manassas, Va., USA). RPMI/Glutamax medium, Penicillin-Streptomycin, Heat Inactivated Fetal Bovine Serum, and D-PBS were purchased from Life Technologies (Grand Island, N.Y., USA). Odyssey blocking buffer, 800CW goat anti-mouse IgG (H+L) antibody, and Licor Odyssey Infrared Scanner were purchased from Licor Biosciences, Lincoln, Nebr., USA. H3K9me2 mouse monoclonal antibody (Cat #1220) was purchased from Abcam (Cambridge, Mass., USA). 16% Paraformaldehyde was purchased from Electron Microscopy Sciences, Hatfield, Pa., USA). MDA-MB-231 cells were maintained in complete growth medium (RPMI supplemented with 10% v/v heat inactivated fetal bovine serum) and cultured at 37° C. under 5% CO2. UNC0638 was purchased from Sigma-Aldrich (St. Louis, Mo., USA).
General Procedure for MDA-MB-231 HEK9me2 In-Cell Western Assay.
Compound (100 nL) was added directly to 384-well cell plate. MDA-MB-231 cells (ATCC) were seeded in assay medium (RPMI/Glutamax supplemented with 10% v/v heat inactivated fetal bovine serum and 1% Penicillin/Streptomycin, Life Technologies) at a concentration of 3,000 cells per well to a Poly-D-Lysine coated 384-well cell culture plate with 50 μL per well. Plates were incubated at 37° C., 5% CO2 for 48 hours (BD Biosciences 356697). Plates were incubated at room temperature for 30 minutes and then incubated at 37° C., 5% CO2 for additional 48 hours. […] Plates were allowed to dry at room temperature then imaged on a Licor Odyssey Infrared Scanner (Licor Biosciences) which measured integrated intensity at 700 nm and 800 nm wavelengths. […]
First, the ratio for each well was determined by […]
The average of the ratio values for each well was calculated and used to determine the percent inhibition for each test well in the plate. […] Percent inhibition was calculated as: […]
(§1) IC50 curves were generated using triplicate wells per concentration of compound. […] IC50 values were calculated using a non-linear regression (variable slope-four parameter fit model) with by the following formula […]

The chains behind the UniProt entries cited, without tags or fusion partners. Residues count along the entry.
UniProt Q96KQ7, 913-1193 limits assumed: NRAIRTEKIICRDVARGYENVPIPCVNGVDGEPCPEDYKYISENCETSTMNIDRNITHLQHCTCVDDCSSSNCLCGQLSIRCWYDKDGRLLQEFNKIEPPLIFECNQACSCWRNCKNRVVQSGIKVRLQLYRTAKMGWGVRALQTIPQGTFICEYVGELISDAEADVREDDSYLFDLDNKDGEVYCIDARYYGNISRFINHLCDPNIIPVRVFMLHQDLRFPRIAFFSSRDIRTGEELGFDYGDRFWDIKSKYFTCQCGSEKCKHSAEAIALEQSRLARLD
UniProt Q9H9B1, whole entry: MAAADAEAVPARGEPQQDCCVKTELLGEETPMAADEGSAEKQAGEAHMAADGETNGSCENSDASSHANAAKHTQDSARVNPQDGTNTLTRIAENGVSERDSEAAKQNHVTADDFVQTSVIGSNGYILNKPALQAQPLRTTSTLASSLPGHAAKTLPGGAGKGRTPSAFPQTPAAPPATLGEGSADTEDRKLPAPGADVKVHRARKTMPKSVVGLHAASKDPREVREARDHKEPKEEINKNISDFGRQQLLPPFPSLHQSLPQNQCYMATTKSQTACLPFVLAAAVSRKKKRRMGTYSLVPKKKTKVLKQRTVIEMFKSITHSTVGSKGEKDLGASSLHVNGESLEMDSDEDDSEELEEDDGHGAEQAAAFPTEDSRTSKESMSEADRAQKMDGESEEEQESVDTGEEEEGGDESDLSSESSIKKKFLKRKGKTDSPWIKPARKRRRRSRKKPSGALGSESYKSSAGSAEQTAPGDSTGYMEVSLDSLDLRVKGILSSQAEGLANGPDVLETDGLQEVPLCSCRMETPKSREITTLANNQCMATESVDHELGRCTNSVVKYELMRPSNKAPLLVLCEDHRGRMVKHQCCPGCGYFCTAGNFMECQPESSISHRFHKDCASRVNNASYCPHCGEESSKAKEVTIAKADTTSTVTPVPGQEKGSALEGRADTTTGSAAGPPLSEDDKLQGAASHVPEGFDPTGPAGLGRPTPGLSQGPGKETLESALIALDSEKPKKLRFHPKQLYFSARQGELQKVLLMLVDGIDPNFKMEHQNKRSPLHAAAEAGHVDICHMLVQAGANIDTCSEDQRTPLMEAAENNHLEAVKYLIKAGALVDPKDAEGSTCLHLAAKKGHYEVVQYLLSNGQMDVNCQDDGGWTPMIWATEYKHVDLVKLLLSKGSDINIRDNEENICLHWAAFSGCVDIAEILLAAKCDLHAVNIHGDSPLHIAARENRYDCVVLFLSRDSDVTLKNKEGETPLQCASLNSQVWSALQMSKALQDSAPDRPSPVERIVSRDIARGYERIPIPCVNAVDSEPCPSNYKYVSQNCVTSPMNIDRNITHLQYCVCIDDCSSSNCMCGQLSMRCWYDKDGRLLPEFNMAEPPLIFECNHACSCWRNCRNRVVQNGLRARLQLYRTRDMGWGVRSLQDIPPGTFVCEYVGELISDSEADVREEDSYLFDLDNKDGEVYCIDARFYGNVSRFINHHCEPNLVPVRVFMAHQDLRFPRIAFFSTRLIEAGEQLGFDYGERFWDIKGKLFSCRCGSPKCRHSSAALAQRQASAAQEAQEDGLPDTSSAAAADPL

Test [2] concerns the target recombinant purified human EHMT2 913-1193 (Homo sapiens, UniProt Q96KQ7). As to the kind of experiment: EHMT2 enzyme assay on histone peptide substrate (3H-SAM Flashplate). The following applies: read-out: EHMT2 PEP (IC50 μM). How it is done:
Recombinant purified human EHMT2 913-1193 (55 μM) synthesized by Viva was used for all experiments. Biotinylated histone peptides were synthesized by Biopeptide and HPLC-purified to >95% purity. Streptavidin Flashplates and seals were purchased from PerkinElmer and 384 Well V-bottom Polypropylene Plates were from Greiner. ^3H-labeled S-adenosylmethionine (3H-SAM) was obtained from American Radiolabeled Chemicals with a specific activity of 80 Ci/mmol. Unlabeled SAM and S-adenosylhomocysteine (SAH) were obtained from American Radiolabeled Chemicals and Sigma-Aldrich respectively. Flashplates were washed in a Biotek ELx-405 with 0.1% Tween. 384-well Flashplates and 96-well filter binding plates were read on a TopCount microplate reader (PerkinElmer). Compound serial dilutions were performed on a Freedom EVO (Tecan) and spotted into assay plates using a Thermo Scientific Matrix PlateMate (Thermo Scientific). Reagent cocktails were added by Multidrop Combi (Thermo Scientific).
General Procedure for EHMT2 Enzyme Assay on Histone Peptide Substrate.
10-point curves of test compounds were made on a Freedom EVO (Tecan) using serial 3-fold dilutions in DMSO, beginning at 2.5 mM (final top concentration of compound was 50 μM and the DMSO was 2%). A 1 μL aliquot of the inhibitor dilution series was spotted in a polypropylene 384-well V-bottom plate (Greiner) using a Thermo Scientific Matrix PlateMate (Thermo Scientific). The 100% inhibition control consisted of 1 mM final concentration of the product inhibitor S-adenosylhomocysteine (SAH, Sigma-Aldrich). Compounds were incubated for 30 minutes with 40 μL per well of 0.031 nM EHMT2 (recombinant purified human EHMT2 913-1193, Viva) in 1× assay buffer (20 mM Bicine [pH 7.5], 0.002% Tween 20, 0.005% Bovine Skin Gelatin and 1 mM TCEP). […] 384-well Flashplates were read on a TopCount microplate reader (PerkinElmer).
as §1

Test [3] concerns the target EHMT1 (Homo sapiens, UniProt Q9H9B1). The test can be described thus: EHMT1 PEP (EHMT1 peptide enzyme assay). The format is biochemical. Conditions: read-out: EHMT1 PEP (IC50 μM); peptide substrate enzyme assay.

As to `CNc1cc(C)nc(Nc2ccc(OC)c(-c3cc4n(c3)CCNC4)c2)n1`, the IC50 in test [1], in test [2] and in test [3] was 1 to 10 µM throughout.
As for `CNc1cc(C)nc(Nc2ccc(OC)c(-c3cc4n(c3)CCN(C)C4)c2)n1`, the concentration for half-maximal inhibition (IC50) in test [1], in test [2] and in test [3] was > 10 µM each time.
On to `CNC1=Nc2cc(-c3[nH]c4cnccc4c3F)c(OC)cc2C12CCC2`, for which the results for the IC50 in test [1], in test [2] and in test [3] were 0.1 to 1 µM, < 0.1 µM and < 0.1 µM, respectively.

In general, IC50 refers to the concentration that gives 50% inhibition.

For the origin of these results see patent US20220235065A1 (Epizyme, Inc., priority 2016, published 2022).
